Results taken from BindingDB's records for PubMed 1353247 (University of Nebraska, 1992).

Protein sequences, listed by entry. Tags and fused reporters are not part of them.
UniProt P18089, whole entry: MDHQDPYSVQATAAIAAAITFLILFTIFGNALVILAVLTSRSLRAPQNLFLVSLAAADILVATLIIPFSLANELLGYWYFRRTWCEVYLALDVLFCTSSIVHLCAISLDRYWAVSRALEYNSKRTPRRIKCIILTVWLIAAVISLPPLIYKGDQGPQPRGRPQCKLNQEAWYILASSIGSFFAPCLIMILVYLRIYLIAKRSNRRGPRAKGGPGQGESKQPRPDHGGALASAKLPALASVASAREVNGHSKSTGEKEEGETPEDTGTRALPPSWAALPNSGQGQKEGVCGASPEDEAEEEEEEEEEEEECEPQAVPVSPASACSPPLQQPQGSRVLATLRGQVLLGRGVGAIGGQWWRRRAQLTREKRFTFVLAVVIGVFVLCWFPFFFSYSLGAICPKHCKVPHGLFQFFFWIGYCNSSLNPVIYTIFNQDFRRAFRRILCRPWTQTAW

Tests used:
[1] = biological target: Alpha-2B adrenergic receptor (Homo sapiens, UniProt P18089)
[2] = biological target: Alpha-2C adrenergic receptor

Row | Ki [2] [nM] | SMILES | Ki [1] [nM]
1 | – | O=C1NCN(c2ccccc2)C12CCN(CC1COc3ccccc3O1)CC2 (stereo not drawn) [8-(2,3-Dihydro-benzo[1,4]dioxin-2-ylmethyl)-1-phenyl-1,3,8-triaza-spiro[4.5]decan-4-one] | 0.19
2 | 29 | Cc1ccc(N(CC2=NCCN2)c2cccc(O)c2)cc1 [SMR000059054] | –
3 | 238 | CN(C)CCCN1c2ccccc2Sc2ccc(Cl)cc21 [[3-(2-Chloro-phenothiazin-10-yl)-propyl]-dimethyl-amine(Chlorpromazine)] | –
